From ChEMBL document CHEMBL5137051 (Eur J Med Chem, 2022) come the findings set out here.

This test is filed under the species Homo sapiens. Briefly: Selectivity index, ratio of IC50 for wild-type EGFR (unknown origin) to IC50 for EGFR L858R/T790M/C797S mutant (unknown origin).
As for `COc1cc(N(C)CCN(C)C)c(NC(=O)c2ccncn2)cc1Nc1nccc(-c2cn(C)c3ccccc23)n1`, the Ratio IC50 came to 0.12.

Consider `COc1cc(N(C)CCN(C)C)c(NC(=O)c2ccncn2)cc1Nc1nc(-c2cn(C)c3ccccc23)c2cccnc2n1`, for which the Ratio IC50 was less than 0.72.

For the compound `COc1cc(N(C)CCN(C)C)c(NC(=O)c2ccnc(Cl)c2)cc1Nc1nccc(-c2cn(CCCO)c3ccccc23)n1`, the Ratio IC50 amounted to 5.4.

With `COc1cc(N(C)CCN(C)C)c(NC(=O)c2ccnc(Cl)c2)cc1Nc1nccc(-c2cn(C)c3ccccc23)n1`, the Ratio IC50 was greater than 1.2.

Turning to `COc1cc(N(C)CCN(C)C)c(NC(=O)c2ncccn2)cc1Nc1nccc(-c2cn(C)c3ccccc23)n1`, the Ratio IC50 is less than 0.29.

`COc1cc(N(C)CCN(C)C)c(NC(=O)c2ccncn2)cc1Nc1nccc(-c2cn(CCCO)c3ccccc23)n1`: the Ratio IC50 amounted to 3.7.

On to `COc1cc(N(C)CCN(C)C)c(NC(=O)c2cnccn2)cc1Nc1nccc(-c2cn(C)c3ccccc23)n1`, for which the Ratio IC50 was less than 0.45.
